## scFv variants of Ab-95 (light chain) against a SARS-CoV-2 spike peptide

Target: peptide PDVDLGDISGINAS, taken from heptad repeat 2 (HR2) of SARS-CoV-2 spike.

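Phage display of a naive human antibody library on the peptide gave the parent. In library AAYL52, one, two or three CDR residues were substituted; doubles and triples were drawn at random. The scFvs were displayed on barcoded MATa yeast, the peptide on MATalpha yeast. The frequency of each diploid, read from paired DNA barcodes, reflects how well the two displayed proteins bind. Scores were corrected for input abundance and mapped to Kd with protein pairs of known affinity run in the same pool. There are three technical replicates.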

The variants keep the heavy chain, the linker and the frameworks of Ab-95 (scFv order VH, the linker GGGGSGGGGSGGGGS, VL).
VH: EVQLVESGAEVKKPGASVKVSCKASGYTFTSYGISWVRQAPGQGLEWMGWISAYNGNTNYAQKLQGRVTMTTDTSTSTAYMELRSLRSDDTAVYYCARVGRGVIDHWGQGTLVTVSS
VL: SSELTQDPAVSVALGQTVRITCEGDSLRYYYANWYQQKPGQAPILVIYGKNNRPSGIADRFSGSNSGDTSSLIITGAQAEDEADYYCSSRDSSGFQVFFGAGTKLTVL

Positions count from residue 1 of the parent VL; R28Y puts Y in place of R. Values are apparent Kd, the geometric mean of the replicates that gave a signal; lower means stronger binding. Where no diploid with the target was found in any replicate, the entry reads "no signal": below detection, most likely a poor binder, though not proof of it. Parent in this assay: reference entry 200 nM, copy in this library 180 nM.

changes,apparent Kd,replicates with signal
R28Y+N33K+V97T,no signal,0/3
N33K+N52M+S55M,4.0 µM,1/3
A32V+F98A,540 nM,1/3
Y31I+R53T+F98H,13 µM,2/3
G49K+N52Y+Q96F,120 µM,2/3
A32S+D91A+S92W,no signal,0/3
Y30T+S55R+S89R,94 nM,3/3
G49T+R90T+S93W,7.8 µM,1/3
D25Q+Y30M+D91F,130 nM,3/3
D25L+S26H+D91R,23 µM,3/3
K50V+S55V+V97N,30 µM,3/3
Y30W+N33P+R90C,20 µM,1/3
Y30W+N51T+P54G,4.9 µM,2/3
Y29N+S88I,17 nM,3/3
S89G+D91F+S92H,690 nM,3/3
N51H+P54Y+V97L,140 µM,1/3
D25H+K50P+S88K,58 µM,2/3
Y29G+N33L+Q96D,no signal,0/3
S88M+F95A+V97F,20 µM,2/3
R28K+Y31T+N33E,8.1 µM,1/3
G24W+S88M+F95D,890 nM,1/3
D25R+S88H+F95S,1.3 µM,3/3
G24I+N33D+V97P,36 µM,2/3
A32H+S88M+D91W,1.3 µM,1/3
D25L+L27Q+P54D,56 µM,1/3
E23H+Y30H+N52W,45 nM,3/3
R53I+R90D+Q96I,7.7 µM,3/3
L27G+R53G+F98W,no signal,0/3
A32N+Q96R+F98M,1.7 µM,3/3
D25L+N52M+R90E,13 µM,2/3
G24V+Y31N+N33T,1.2 µM,1/3
R28C+P54N+F95M,6.2 µM,3/3
S26Q+A32R,2.0 µM,3/3
E23K+G49R+P54E,18 µM,2/3
N33A+P54N,2.6 µM,1/3
S26H+S89W+S92K,660 nM,1/3
D25R+N33H+G49T,3.3 µM,3/3
Y29C+Y30C+N51G,160 nM,3/3
S26V+G94Q+F95Q,60 µM,1/3
E23K+N33Q+N52T,570 nM,2/3
S26F+R28D+F98S,65 µM,1/3
Y30R+P54Q+R90C,420 nM,3/3
Y31M+D91G+S92A,230 nM,3/3
R28H+F98V,4.9 µM,3/3
Y29R+S89C+D91Q,2.5 µM,3/3
S89G+G94W,390 nM,3/3
E23W+N33E+S89V,13 µM,2/3
A32Q+N33S,770 nM,3/3
N51L+D91F+G94F,4.4 µM,3/3
R28L+R53H+D91C,12 µM,2/3
S26Y+A32G+P54V,4.8 µM,3/3
N33C+P54A+S88H,4.5 µM,1/3
Y29H+D91R,310 nM,3/3
A32Y+R53C+P54M,9.7 µM,1/3
Y30W+S93H+F98H,1.0 µM,3/3
G24N+S55F+G94A,10 µM,3/3
E23K+N51A+D91M,8.7 µM,2/3
L27C+A32E+F95Q,78 µM,2/3
S88A+F95Q+V97K,520 nM,3/3
N52V+R90T+G94D,1.9 µM,3/3
G24I+F98Y,5.5 µM,2/3
G24W+S93P,42 µM,2/3
D25A+Y29Q+S89P,no signal,0/3
E23W+S26H+S92R,710 nM,3/3
E23S+Y31G+P54Q,79 nM,3/3
A32P+K50M+G94E,77 nM,3/3

Top 7 of the variants detected in all replicates, tightest first:

| changes | apparent Kd | replicates with signal |
|---|---|---|
| Y29N+S88I | 17 nM | 3/3 |
| E23H+Y30H+N52W | 45 nM | 3/3 |
| A32P+K50M+G94E | 77 nM | 3/3 |
| E23S+Y31G+P54Q | 79 nM | 3/3 |
| Y30T+S55R+S89R | 94 nM | 3/3 |
| D25Q+Y30M+D91F | 130 nM | 3/3 |
| Y29C+Y30C+N51G | 160 nM | 3/3 |

Three control strains display no target. For library AAYL52, 28% of the pairings with them gave a signal, with a median of 8.2 µM and one signal in twenty below 800 nM, so weak values seen in few replicates may be background.

Values reported by Engelhart et al. 2022, doi:10.1038/s41597-022-01779-4 (FLAb copy).